The experiment deals with T1, MC4R (melanocortin4 receptor) (Homo sapiens, UniProt P32245).
T1 construct: PCR amplified MC4R encoding DNA is introduced into the gateway Entry Vector (pENTR); expressed in transfected cells; host or cells: Hek293
As to the kind of experiment: Gs coupled receptor (MC4R) agonist screening, Cre-YFP reporter assay detected using a fluorescence microscope. In kind it is cell-based. The settings on record: HEK293 and U2OS cells expressing MC4; FIG. 13. The source says:
A 732 bp of EYFP fragment from pd2EYFP-1 (Clontech Cat.#6912-1) is ligated to a 3.5 kb fragment from pCRE-d2EGFP (Clontech Cat #6034-1). Both fragments are excised from the two vectors by a common restriction enzyme digestion.
PCR amplified MC4R encoding DNA is introduced into the gateway Entry Vector (pENTR) by topoisomarase-mediated ligation. The DNA is subsequently recombined into Destination Vector pDEST12.2. (pDEST12.2MC4R)
Hek293 cells are co-transfected with pDEST1.2.2MC4R and Cre-YFP (using standard procedure for Fugene6 transfection) and cells are cultured on PEGA beads displaying adhesion peptide and respectively 1) Negative control (PEGA beads with adhesion peptide) and 2) Positive control (PEGA beads of example 2) by mixing appr. […] The level of CRE-YFP expression was detected using a Zeiss Axiovert 200M microscope equipped with appropriate filters for YFP detection (Excitation 500/20 nm, Dicroic 515 LP EM 535/30).
Hek293 cells were co-transfected with pDEST1.2.2MC4R and pCRE-d2EYFP and put under G418 selection for 3 weeks. Hereafter cells were FACSorted (Fluorescence Activated Bead sorted) for high YFP expression after stimulation with aMSH 100 nM and 0.4 uM TSA (Tricostatin A) for 20 hrs. […]
The LabTek one well chambered coverglass was placed on a Zeiss Axiovert 200 fluorescence microscope equipped with filters optimal for YFP fluorescence. […]
In general terms: Reporter assays use an easily measured gene product as a stand-in for the process of interest.

Chains of the proteins cited; added tags and fusions are not shown.
UniProt P32245, whole entry: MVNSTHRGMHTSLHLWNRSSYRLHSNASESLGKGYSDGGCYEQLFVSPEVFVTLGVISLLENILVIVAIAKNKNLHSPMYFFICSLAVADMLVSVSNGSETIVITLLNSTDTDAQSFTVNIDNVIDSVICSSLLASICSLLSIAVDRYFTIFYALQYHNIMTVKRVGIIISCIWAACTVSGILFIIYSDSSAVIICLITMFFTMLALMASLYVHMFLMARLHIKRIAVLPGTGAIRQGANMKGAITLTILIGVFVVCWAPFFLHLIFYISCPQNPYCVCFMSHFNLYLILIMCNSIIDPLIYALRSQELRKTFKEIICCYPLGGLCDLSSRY

“Ac-Ser-Tyr-Ser-Met-Glu-His-Phe-Arg-Trp-Gly-Lys-Pro-Val-Gly-OH [aMSH]”: the CRE-YFP transcription result is recorded as “induced CRE-YFP transcription”.

Source of the values: patent US20110319274A1, “Identification of Compounds Modifying a Cellular Response” (Carlsberg A/S, priority 2004, published 2011).
